Among the data in patent publication US9872861B2, “Methods of treatment using selective Bcl-2 inhibitors” (AbbVie Inc., priority 2010, dated 2018) are Ki values, retold here.

Amino acid sequences for entries named in this document (tags omitted).
UniProt P10415, whole entry: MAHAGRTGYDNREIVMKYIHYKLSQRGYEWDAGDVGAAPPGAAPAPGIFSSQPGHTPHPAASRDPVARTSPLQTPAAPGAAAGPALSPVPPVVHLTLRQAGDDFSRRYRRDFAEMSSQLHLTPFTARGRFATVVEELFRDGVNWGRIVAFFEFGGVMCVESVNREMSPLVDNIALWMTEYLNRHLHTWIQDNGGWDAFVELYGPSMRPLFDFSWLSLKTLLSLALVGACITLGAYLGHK

The test has as its target Bcl-2 (Homo sapiens, UniProt P10415). The test is described as follows: TR FRET competitive binding affinity, Bcl-2. The note with it: read-out: Target Affinity TR FRET, Bcl-2. As for the experimental part: A comparison of the binding affinity for each of the compounds was performed to determine target affinity, as measured by Time-Resolved Fluorescence Resonance Energy Transfer (TR FRET).
(TR-FRET usually uses a lanthanide donor and a delayed reading to cut background.)

With `CC1(C)CCC(c2ccc(Cl)cc2)=C(CN2CCN(c3ccc(C(=O)NS(=O)(=O)c4ccc(N[C@H](CCN5CCOCC5)CSc5ccccc5)c(S(=O)(=O)C(F)(F)F)c4)cc3)CC2)C1` [Compound 2, N-(4-(4-((2-(4-chlorophenyl)-5,5-dimethyl-1-cyclohex-1-en-1-yl)methyl)piperazin-1-yl)benzoyl)-4-(((1R)-3-(morpholin-4-yl)-1-((phenylsulfanyl)methyl)propyl)amino)-3-((trifluoromethyl)sulfonyl)benzenesulfonamide, reference compound], the Ki stood at 0.04 nM.
